The results in this text go back to patent US10906889B2, “Polycyclic inhibitors of cyclin-dependent kinase 7 (CDK7)” (Dana-Farber Cancer Institute, Inc., priority 2013, dated 2021).

By UniProt entry, the sequences of proteins in these tests, tags left out.
UniProt P50613, whole entry: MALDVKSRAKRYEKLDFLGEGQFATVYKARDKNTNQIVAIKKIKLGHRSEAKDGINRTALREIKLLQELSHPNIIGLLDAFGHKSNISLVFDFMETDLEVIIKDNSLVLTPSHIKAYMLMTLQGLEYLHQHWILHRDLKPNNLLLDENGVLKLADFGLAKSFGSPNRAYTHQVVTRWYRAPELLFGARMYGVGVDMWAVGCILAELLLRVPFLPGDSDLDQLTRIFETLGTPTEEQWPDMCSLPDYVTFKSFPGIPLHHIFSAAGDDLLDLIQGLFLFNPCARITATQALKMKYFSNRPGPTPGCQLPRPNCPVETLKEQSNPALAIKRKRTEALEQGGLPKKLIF
UniProt P51946, whole entry partner: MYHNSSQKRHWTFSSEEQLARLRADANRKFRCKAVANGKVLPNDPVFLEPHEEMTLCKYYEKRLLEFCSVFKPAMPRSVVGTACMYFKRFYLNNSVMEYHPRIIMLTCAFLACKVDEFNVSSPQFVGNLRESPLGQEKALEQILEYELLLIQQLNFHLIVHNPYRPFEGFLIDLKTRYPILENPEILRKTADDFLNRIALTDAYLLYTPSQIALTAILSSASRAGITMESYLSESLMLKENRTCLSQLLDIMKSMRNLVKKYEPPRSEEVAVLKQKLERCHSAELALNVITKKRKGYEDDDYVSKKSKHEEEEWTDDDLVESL
UniProt P51948, whole entry partner: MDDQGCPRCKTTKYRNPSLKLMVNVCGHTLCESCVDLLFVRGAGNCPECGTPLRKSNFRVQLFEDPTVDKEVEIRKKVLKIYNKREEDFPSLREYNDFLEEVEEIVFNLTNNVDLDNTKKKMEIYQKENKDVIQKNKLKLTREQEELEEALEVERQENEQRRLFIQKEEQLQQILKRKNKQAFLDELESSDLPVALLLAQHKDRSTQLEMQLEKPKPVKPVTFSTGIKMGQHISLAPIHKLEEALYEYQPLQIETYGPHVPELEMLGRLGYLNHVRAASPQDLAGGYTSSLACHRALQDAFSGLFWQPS

The test system of assay [1] is Jurkat cells. As to conditions: read-out: Jurkat IC50; blood cancer cell line; 72 hour.
Assay [2] deals with CDK7 (Homo sapiens, UniProt P50613). The assay is described as follows: Adapta kinase assay (Life Technologies), CDK7. To be noted: read-out: CDK7 IC50, Table 1C, co-factors cyclin H and MNAT1. In kind it is biochemical.

pIC50: −log10 of the molar value. A value given as a limit tells only on which side of the number the result lay.

With `COCCN1CCN(C/C=C/C(=O)Nc2ccc(C(=O)N[C@H]3CCC[C@@H](Nc4ncc(Cl)c(-c5c[nH]c6ccccc56)n4)C3)cc2)CC1`, the pIC50 in assay [1] is > 6.30; in assay [2] it was > 7.00.

Consider `O=C(/C=C/CN1CCN(C2CC2)CC1)Nc1ccc(C(=O)N[C@H]2CCC[C@@H](Nc3ncc(Cl)c(-c4cnn5ccccc45)n3)C2)cc1`, for which the pIC50 in assay [2] was > 7.00.

Turning to `O=C(/C=C/CN1CCOCC1)Nc1ccc(C(=O)N[C@H]2CCC[C@@H](Nc3ncc(Cl)c(-c4cnn5ccccc45)n3)C2)cc1`, in assay [2], the pIC50 was > 7.00.
